Measurements taken from publication PMC4337820 (Journal of medicinal chemistry, 2015).

Tested on: T. cruzi, strain Tulahuen C4 amastigotes
Assay: In vitro activity against T. cruzi amastigotes
Format: cell-based

Row | Structure (SMILES) | antichagasic activity class (TDR criteria)
1 | CC(O)(Cn1cncn1)c1ccc(-n2ccnc2)cc1 (centres unmarked) [Compound 15, 2-[4-(1H-imidazol-1-yl)phenyl]-1-(1H-1,2,4-triazol-1-yl)propan-2-ol] | inactive
2 | CC1(c2ccc(-n3ccnc3)cc2)CO1 (centres unmarked) [Compound 22, 1-(4-(2-methyloxiran-2-yl)phenyl)-1H-imidazole] | inactive
